Reference: PubChem BioAssay (NCATS)
The entries are a selection whose mix differs from that of the whole data set. Results filed as inconclusive are left out. The source made the active and inactive calls. Calls follow the shape of the dose curve; as a rule, active = well fitted curve in the direction sought with a large enough effect; inconclusive = small, poorly fitted or top-dose-only effect, or another doubt; inactive = no such curve, though single readings can be large; an effect the other way counts as inactive or inconclusive.

Sequences of proteins named here, by UniProt entry; tags and fusion partners are left off.
UniProt P08684, whole entry, looked up: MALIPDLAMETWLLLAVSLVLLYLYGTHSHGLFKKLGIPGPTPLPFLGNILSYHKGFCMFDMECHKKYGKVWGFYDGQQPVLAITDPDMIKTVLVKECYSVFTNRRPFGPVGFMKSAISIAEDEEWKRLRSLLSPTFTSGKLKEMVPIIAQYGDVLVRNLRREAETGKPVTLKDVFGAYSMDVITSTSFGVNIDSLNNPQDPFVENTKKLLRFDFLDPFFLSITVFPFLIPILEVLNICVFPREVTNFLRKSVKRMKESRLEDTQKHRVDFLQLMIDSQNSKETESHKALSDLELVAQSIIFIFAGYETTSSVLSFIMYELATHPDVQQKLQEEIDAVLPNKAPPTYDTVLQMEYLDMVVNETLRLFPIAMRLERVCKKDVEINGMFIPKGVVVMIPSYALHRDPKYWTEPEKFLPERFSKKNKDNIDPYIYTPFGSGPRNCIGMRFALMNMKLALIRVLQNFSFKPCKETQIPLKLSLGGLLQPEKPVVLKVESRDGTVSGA

What was measured:
[1] = Cellular Toxicity (caspase-3) Renal Proximal Tubule (AID 667); conditions: renal proximal tubule cells, primary cells freshly taken from rat, solvent-only wells 0%, staurosporine 100%; at 91.7 µM (top of the series);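 also: cells exposed to compound for 16 hours at 37 °C before detection; 0% = DMSO basal and 100% = 10 µM staurosporine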
Summary of the method: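 Luminescent caspase 3/7 signal from peptide-aminoluciferin cleavage measures apoptosis in freshly isolated rat kidney proximal tubule cells after 16 h compound exposure. Concentration-response data are normalized to DMSO and 10 uM staurosporine, and AC50 values come from Hill equation fits.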

[2] = biological target: Cytochrome P450 3A4 (Homo sapiens) (UniProt P08684); experiment: qHTS Assay for Inhibitors and Substrates of Cytochrome P450 3A4 (AID 884); conditions: recombinant CYP3A4, Luciferin-PPXE luminescence; at 57.1 µM (top of the series); also: % is scaled to controls: 0 for no effect and ±100 for the full control effect; nearly all actives have a fitted effect of over 50% in size
[3] = MultiTox-Fluor Cytotoxicity Assay - LYMP1-001 - Dead Cells (AID 946); conditions: LYMP1-001 lymphoblastoid cells, dead-cell protease fluorescence; at 92.2 µM (top of the series)
Summary of the method: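 Cytotoxicity as increased dead-cell protease fluorescence (bis-AAF-R110, 485/520 nm), read 60 min after MultiTox-Fluor reagent. Human lymphoblastoid line exposed 16 h; Hill-fitted AC50, with DMSO as 0% and 15 uM tetraoctylammonium bromide as 100%.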

[4] = MultiTox-Fluor Cytotoxicity Assay - LYMP1-001 - Live Cells (AID 947); conditions: LYMP1-001 lymphoblastoid cells, live-cell protease fluorescence viability; at 92.2 µM (top of the series);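 also: 0% = DMSO only and full inhibition = tetraoctylammonium bromide control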
[5] = Cell Viability - LYMP1-002 - Assay at 16 hr (AID 948); conditions: LYMP1-002 lymphoblastoid cell viability; at 92.2 µM (top of the series);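 also: 0% = DMSO alone and full effect = 92 µM tetraoctylammonium bromide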
Summary of the method: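 LYMP1-002 human lymphoblastoid cells, 2500/well; 5 hr 37 C; cpd 16 hr 37 C; CellTiter-Glo 30 min RT; luminescence (ATP). Concentration-response, Hill-fit AC50. Pos ctrl tetraoctylammonium bromide.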

[6] = MultiTox-Fluor Cytotoxicity Assay - LYMP1-002 - Live Cells (AID 955); conditions: LYMP1-002 lymphoblastoid live-cell protease fluorescence viability; at 46.1 µM (top of the series);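 also: cells exposed to compound for 16 hours; % is scaled to controls: 0 for no effect and ±100 for the full control effect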
Summary of the method: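 Human lymphoblastoid LYMP1-002 cells, 2500/well, treated 16 h at 37 C in complete medium. Live-cell protease activity via GF-AFC fluorescence (Ex/Em 405/510) after 60 min reagent incubation; AC50 from Hill fits.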

[7] = MultiTox-Fluor Cytotoxicity Assay - LYMP1-002 - Dead Cells (AID 960); conditions: LYMP1-002 lymphoblastoid cells, dead-cell protease fluorescence; at 46.1 µM (top of the series); also: nearly all actives have a fitted effect of over 60% in size
Summary of the method: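 Human lymphoblastoid LYMP1-002 cells, 2500/well, treated 16 h at 37 C; dead-cell protease cleavage of bis-AAF-R110 read by fluorescence (485/520); normalized to DMSO and 15 uM tetraoctylammonium bromide; AC50 from Hill fit.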

[8] = MultiTox-Fluor Cytotoxicity Assay - LYMP1-003 - Dead Cells (AID 961); conditions: LYMP1-003 lymphoblastoid cells, dead-cell protease fluorescence; at 92.2 µM (top of the series); also: nearly all actives have a fitted effect of over 70% in size
Summary of the method: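 Dead-cell protease release, detected as bis-AAF-R110 fluorescence at 485/520 nm, was measured in LYMP1-003 cells after 16 h compound treatment at 37 C. AC50 values came from Hill-modeled qHTS curves normalized to DMSO (0%) and 15 uM tetraoctylammonium bromide (100%).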

[9] = MultiTox-Fluor Cytotoxicity Assay - LYMP1-003 - Live Cells (AID 962); conditions: LYMP1-003 lymphoblastoid cells, MultiTox-Fluor live-cell protease fluorescence; at 92.2 µM (top of the series);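 also: cells exposed to compound for 16 hours at 37 °C; 0% = DMSO only and full loss = 92 µM tetraoctylammonium bromide; cytotoxic hits lower the live-cell protease signal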
Summary of the method: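 LYMP1-003 lymphoblastoid cells, 2500/well in complete medium, treated 16 h at 37 C; live-cell protease cleavage of GF-AFC read by fluorescence (Ex/Em 405/510) after 60 min reagent; AC50 from Hill fits of concentration-response.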

[10] = Cell Viability - LYMP1-003 - Assay at 24 hr (AID 963); conditions: LYMP1-003 lymphoblastoid cell viability; at 92.2 µM (top of the series);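 also: plate controls were DMSO only for no effect and tetraoctylammonium bromide positive control for full effect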
Summary of the method: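 Human lymphoblastoid LYMP1-003 cells, 2500/well, treated 24 h at 37 C in complete medium. Viability read as intracellular ATP by CellTiter-Glo luminescence after 30 min at room temperature; AC50 from Hill-equation fits of qHTS concentration-response.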

[11] = Cell Viability - LYMP2-005 (AID 967);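 also: plate controls were DMSO only for no effect and 92 µM tetraoctylammonium bromide control for full effect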
Summary of the method: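 Steps: seed 2500 LYMP2-005 cells/well, incubate 5 h at 37 C, add compound, incubate 24 h at 37 C, add CellTiter-Glo, wait 30 min at RT, read luminescence. Concentration-response data fitted to Hill equation for AC50.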

[12] = Cell Viability - LYMP2-023 (AID 975); conditions: LYMP2-023 lymphoblastoid cell viability; at 92.2 µM (top of the series);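 also: cellular ATP measured by luciferase luminescence as viability proxy; plate controls were DMSO only for no effect and 92 µM tetraoctylammonium bromide control for full effect; nearly all actives have a fitted effect of over 55% in size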
Summary of the method: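 LYMP2-023 human lymphoblastoid cells, 2500/well, preincubated 5 hr at 37 C, then compound-treated 24 hr at 37 C in complete medium. CellTiter-Glo luminescence (ATP) after 30 min at room temperature; AC50 from Hill-equation fits; tetraoctylammonium bromide positive control.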

[13] = Cell Viability - LYMP2-025 (AID 976); conditions: LYMP2-025 lymphoblastoid cell viability; at 92.2 µM (top of the series);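 also: plate controls were DMSO only for no effect and tetraoctylammonium bromide control for full effect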
Summary of the method: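 Human lymphoblastoid LYMP2-025 cells, 2500/well, exposed 24 h at 37 C in complete medium in 1536-well qHTS. Viability as cellular ATP by CellTiter-Glo luminescence; AC50 from Hill fits of concentration-response data.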

[14] = Cell Viability - LYMP2-002 (AID 977); conditions: LYMP2-002 lymphoblastoid cell viability, qHTS; at 92.2 µM (top of the series);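 also: compound exposure lasted 24 h at 37 °C; plate controls were DMSO only for no effect and 92 µM tetraoctylammonium bromide for full effect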
Summary of the method: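 Cytotoxicity is scored as concentration-dependent loss of cellular ATP in a human lymphoblastoid line after 24 hr compound treatment at 37 C. AC50 is obtained by modelling concentration-response data with the Hill equation.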

[15] = Cell Viability - LYMP2-007 (AID 979); conditions: LYMP2-007 lymphoblastoid cell viability; at 92.2 µM (top of the series);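 also: cells exposed to compound for 24 h before reading; 0% = DMSO only and the negative end = 92 µM tetraoctylammonium bromide; nearly all actives have a fitted effect of over 60% in size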
[16] = Cell Viability - LYMP2-014 (AID 983); conditions: LYMP2-014 lymphoblastoid cells, viability qHTS; at 92.2 µM (top of the series);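 also: plate controls were DMSO only for no effect and 92 µM tetraoctylammonium bromide for full effect; nearly all actives have a fitted effect of over 50% in size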
Summary of the method: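 LYMP2-014 human lymphoblastoid cells, 2500/well, treated 24 h at 37 C in complete medium; viability by CellTiter-Glo ATP luminescence after 30 min at room temperature. AC50 from Hill fits of qHTS concentration-response; tetraoctylammonium bromide positive control.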

[17] = Cell Viability - LYMP2-016 (AID 984); conditions: LYMP2-016 lymphoblastoid cell viability, qHTS; at 92.2 µM (top of the series); also: % is scaled to controls: 0 for no effect and ±100 for the full control effect; nearly all actives have a fitted effect of over 55% in size
Summary of the method: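 qHTS, 1536-well: 2500 LYMP2-016 cells/well, 5 hr 37 C, compound added, 24 hr 37 C, CellTiter-Glo 30 min RT, luminescence. Tetraoctylammonium bromide positive control. AC50 via Hill fit.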

[18] = Cell Viability - LYMP2-026 (AID 989); conditions: LYMP2-026 lymphoblastoid cell viability, qHTS; at 92.2 µM (top of the series); also: % is scaled to controls: 0 for no effect and ±100 for the full control effect; nearly all actives have a fitted effect of over 50% in size
Summary of the method: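 Human lymphoblastoid LYMP2-026 cells, 2500/well, exposed to compound 24 h at 37 C in complete medium. Viability as intracellular ATP by CellTiter-Glo luminescence; AC50 from Hill fits of qHTS concentration-response.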

[19] = Cell Viability - LYMP1-002 - Assay at 24 hr (AID 993); conditions: LYMP1-002 lymphoblastoid cells viability; at 92.2 µM (top of the series); also: % is scaled to controls: 0 for no effect and ±100 for the full control effect
Summary of the method: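 Human lymphoblastoid LYMP1-002 cells (2500/well) treated 24 h at 37 °C; viability as intracellular ATP by CellTiter-Glo luminescence. Tetraoctylammonium bromide as positive control; AC50 from Hill-equation fits of qHTS concentration-response.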

Cc1cc([N+](=O)[O-])cc([N+](=O)[O-])c1O
inactive: caspase-3 activation [1] -2% | activity change, negative = inhibition [2] -6.09% | cytotoxicity (dead cells) [3] -1.32% | activity change, negative = cytotoxicity [4] -28.7% | activity change, negative = cytotoxicity [5] -8.2% | viability change, negative = cytotoxic [6] -18.3% | cytotoxicity (dead cells) [7] 20.7% | cytotoxicity (dead cells) [8] 12.6% | activity change, negative = fewer live cells [9] -18.9% | viability change, negative = cytotoxic [10] -13.2% | Potency [11] | activity change, negative = cytotoxicity [12] -1.1% | activity change, negative = cytotoxicity [13] -16.5% | activity change, negative = cytotoxic [14] 3.82% | activity change, negative = cytotoxicity [15] -11.4% | activity change, negative = cytotoxicity [16] -0.972% | activity change, negative = cytotoxicity [17] -15.3% | activity change, negative = cytotoxic [18] -10.9% | activity change, negative = cytotoxicity [19] -10.5%
